Experiment in all cases: PPO enzyme inhibition (IC50), MBP-fused PPO
Type in all cases: biochemical
Holding throughout (conditions): 50 μM protoporphyrinogen IX, pH 8.0, room temperature, 30 min

Test [1] concerns the target Thermosynechococcus sp. NK55a PPO CyPPO17 (SEQ ID NO: 3) variant V304M (MBP fusion). The procedure: (§1) Thus, PPO proteins of wild type and variants were expressed as fused to MBP and were used for experiments.
(§2) The following process for purification of PPO protein was performed in a 4° C. cold room. Amylose resin (NEB) was packed to 1.5×15 cm column (Bio-Rad, Econo Columns 1.5×15 cm, glass chromatography column, max. vol), and the obtained protein extracts were loaded to the column at a flow rate of 0.2 ml/min. The column was washed with 3 column volumes of buffer and the presence of protein in the washing solution was examined. When the protein was no longer detected, the washing procedure was terminated. Then, the MBP-PPO protein was eluted with approximately 2 column volumes of buffer containing 20 mM maltose. The protein concentration of each eluent was determined and the elution was stopped when the protein was no longer detected. Ten microliter of each fraction was investigated for protein quantification and SDS-PAGE analysis. The highly pure fractions of PPO protein variants were used for the enzyme assay.
(§3) Since protoporphyrinogen IX, a substrate of PPO protein, was not commercially available, it was chemically synthesized in the laboratory. Overall process was performed in dark under nitrogen stream. […] of protoporphyrin IX was dissolved in 20 ml of 20% (v/v) EtOH, and stirred under dark condition for 30 minutes. The obtained protoporphyrin IX solution was put into a 15 ml screw tube in an amount of 800 μl, and flushed with nitrogen gas for 5 minutes. To this, 1.5 g of sodium amalgam was added and vigorously shaken for 2 minutes. The lid was opened to exhaust hydrogen gas in the tube. Thereafter, the lid was closed and incubated for 3 minutes. The protoporphyrinogen IX solution was filtered using syringe and cellulose membrane filter. […] To determine the enzyme activity of PPO protein, a reaction mixture was prepared with the following composition (based on 10 ml): 50 mM Tris-Cl (pH 8.0); 50 mM NaCl; 0.04% (v/v) Tween 20; 40 mM glucose (0.072 g); 5 units glucose oxidase (16.6 mg); and 10 units catalase (1 μl).
(§4) Hundred and eighty microliters of a reaction mixture containing the purified PPO protein were placed in 96 well plates and 20 μl of […] were added. […] The reaction proceeded at room temperature for 30 min and the fluorescence of protoporphyrin IX was measured using Microplate reader (Sense, Hidex) (excitation: 405 nm; emission: 633 nm). […] To this, 2.7 N HCl was added, and the absorbance at 408 nm was measured. A standard curve was generated using standard protoporphyrin IX, and PPO activity was measured by calibration of protoporphyrin IX using the standard curve of protoporphyrin IX.

The target in test [2] is Thermosynechococcus sp. NK55a PPO CyPPO17 (SEQ ID NO: 3) variant L326T (MBP fusion). The protocol: as §1, §2, §3, §4
The target in test [3] is Thermosynechococcus sp. NK55a PPO CyPPO17 (SEQ ID NO: 3) variant R88A (MBP fusion). The procedure:
as §1, §2, §3, §4

The target in test [4] is Thermosynechococcus sp. NK55a PPO CyPPO17, wild type, SEQ ID NO: 3 (MBP fusion). The procedure: as §1, §2, §3, §4
The target in test [5] is Thermosynechococcus sp. NK55a PPO CyPPO17 (SEQ ID NO: 3) variant A166L (MBP fusion). The procedure: as §1, §2, §3, §4
The target in test [6] is Thermosynechococcus sp. NK55a PPO CyPPO17 (SEQ ID NO: 3) variant V164C (MBP fusion). The protocol: as §1, §2, §3, §4

Consider `C#CCN1C(=O)COc2cc(F)c(N3C(=O)C4=C(CCCC4)C3=O)cc21` [flumioxazin], for which the half-inhibitory concentration (IC50) in test [1] worked out at 63 nM; in test [2], 139 nM; in test [3], 95 nM; in test [4] it was 26 nM; in test [5], 2830 nM.

For the molecule `Cc1nn(-c2cc(NS(C)(=O)=O)c(Cl)cc2Cl)c(=O)n1C(F)F` [sulfentrazone], the IC50 in test [1] is 1090 nM; in test [2], greater than 10000 nM; in test [3] it was 4430 nM; in test [6], 920 nM; in test [4], 326 nM.

Values taken from patent US11219221B2 (FarmHannong Co., Ltd., priority 2017, dated 2022).
